One assay relates to Cavia porcellus. In words: Bronchoprotective activity in guinea pig assessed as inhibition of histamine-induced bronchoconstriction at ED80 administered intratracheally after 4 to 24 hrs relative to control. Format: functional, organism-based. The method, boiled down: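 Guinea pigs received a single intratracheal dose of agonist. Histamine-induced bronchoconstriction was measured at several time points after dosing, up to 24 h. Bronchoprotection was expressed as inhibition relative to control animals.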

Protein sequences, listed by entry. Tags and fused reporters are not part of them.
UniProt Q8K4Z4, whole entry, looked up: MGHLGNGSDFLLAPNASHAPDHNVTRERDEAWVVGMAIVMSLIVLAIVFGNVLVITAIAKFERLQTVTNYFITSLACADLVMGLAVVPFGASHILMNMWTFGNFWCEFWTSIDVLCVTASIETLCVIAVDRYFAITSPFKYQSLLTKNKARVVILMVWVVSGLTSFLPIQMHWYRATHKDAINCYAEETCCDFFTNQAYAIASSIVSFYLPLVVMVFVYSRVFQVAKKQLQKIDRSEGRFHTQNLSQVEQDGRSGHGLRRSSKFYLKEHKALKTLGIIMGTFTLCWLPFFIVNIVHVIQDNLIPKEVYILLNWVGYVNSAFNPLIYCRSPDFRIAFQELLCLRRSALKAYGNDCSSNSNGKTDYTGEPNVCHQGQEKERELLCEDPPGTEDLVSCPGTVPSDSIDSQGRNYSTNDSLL

Assay [1] deals with Beta-2 adrenergic receptor (Cavia porcellus) (UniProt Q8K4Z4). The note with it: Trachea.

Calls of active or inactive are those of the source. The rule behind the calls is not given here.

For the compound `COc1ccc(CC(C)NCC(O)c2ccc(O)c(NC=O)c2)cc1` (configuration not stated), the inhibition result in the assay on Cavia porcellus was “Active”.

Regarding `Br.CCN(CC)CCN(CCNCCc1ccc(O)c2[nH]c(=O)sc12)C(=O)CCOCCc1cccc2ccccc12`, the pA50 in assay [1] is 8.

These data come from ChEMBL document CHEMBL3259656, “Discovery of AZD3199, An Inhaled Ultralong Acting β2 Receptor Agonist with Rapid Onset of Action” (ACS Med Chem Lett, 2014).
